This is a selection; strong and weak results do not stand in their true shares. Active and inactive are the calls of the source.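 How the source made its calls: active means calcium response below the same-plate mean of wells given acetylcholine alone at its 80%-effect dose, minus 3 SD; inactive means the rest.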
What follows are compounds tested against Muscarinic acetylcholine receptor M1 (Rattus norvegicus) (UniProt P08482) (assay: rat M1 muscarinic receptor antagonists, confirmation, CHO cells, Fluo-4 calcium, duplicate (AID 677;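 further: raw fluorescence intensity difference in arbitrary instrument units and not normalized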)). Conditions: ACh EC80 antagonism, at 10 µM, stronger effect = lower value.

Sequences of proteins named here, by UniProt entry; tags and fusion partners are left off.
UniProt P08482, whole entry: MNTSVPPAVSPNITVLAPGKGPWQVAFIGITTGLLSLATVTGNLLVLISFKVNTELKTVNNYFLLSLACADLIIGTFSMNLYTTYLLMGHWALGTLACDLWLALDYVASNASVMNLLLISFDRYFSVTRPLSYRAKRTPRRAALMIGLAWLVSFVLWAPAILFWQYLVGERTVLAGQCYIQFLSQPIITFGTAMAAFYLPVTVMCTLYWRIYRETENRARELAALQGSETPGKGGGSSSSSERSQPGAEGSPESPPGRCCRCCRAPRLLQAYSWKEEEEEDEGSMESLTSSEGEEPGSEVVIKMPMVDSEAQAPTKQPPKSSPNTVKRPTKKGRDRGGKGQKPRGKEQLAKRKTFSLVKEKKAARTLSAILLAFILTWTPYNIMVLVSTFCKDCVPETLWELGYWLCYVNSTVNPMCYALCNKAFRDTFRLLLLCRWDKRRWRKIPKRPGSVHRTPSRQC

SMILES	calcium response (max-min fluorescence)
O=C(OC1CN2CCC1CC2)c1cccc(Cl)c1 (stereo not drawn)	active: 53
O=C(OC1CN2CCC1CC2)C12CC3CC(CC(C3)C1)C2 (stereo not drawn)	active: 21.4
O=C(COc1ccccc1)OC1CN2CCC1CC2 (stereo not drawn)	active: 81.5

— PubChem BioAssay AID677 (Vanderbilt High Throughput Screening Facility, 2007)
